Test system: human melanoma cell line, LOX
Assay: LOX melanoma survival test, nude mice protocol
Type: in vivo, athymic Swiss nu/nu mice
Settings: T/C over 145% considered indicative of increased survival or remission
Description: Figs. 1-8 are a plot of survival rates of a cancer in an animal model, either treated as per the invention or untreated. In these plots, "% survival" means the % of the total group (treated "T" or control "C") still surviving on the day in question. The 50% data point is selected for the T/C calculation, as being the point that is statistically meaningful.
In the examples that follow, "nude mice protocol" refers to conventional xenografted human carcinoma or melanoma cells implanted into athymic mice. […] This has been reported in, e.g., the Journal of the National Cancer Institute, Vol. 74, No. 4, p. 899-903, especially p. […] (April 1985).
A human melanoma cell line, LOX, was utilized that grows rapidly when innoculated into the peritoneal cavity of athymic mice. Tumors which had been passaged subcutaneously in athymic mice were excised under sterile conditions and converted to a single cell suspension using a metal grid with a 4 mm mesh. […] Cells were then scored for viability with trypan blue and 5 million viable cells made up in 0.1 ml of Dulbecco modified Eagles' medium (DME) were injected intraperitoneally into a group of athymic Swiss nu/nu mice (day 0). […]
T/C is the ratio, expressed as a percentage, of mean survival age of the treated group, to the mean survival age of the untreated control group.

## CCCN1C(=CC=Cc2sc3ccccc3[n+]2CCC)Sc2ccccc21 [Dye No. 5, 3-propyl-2-[3-(3-propyl-4-benzothia-zolin-2-ylidene)-1-propen-1-yl]benzothiazolium iodide]
  outcome of treatment of the melanoma (verdict in words): failure
